Assay results published in patent US20250017942A1, “Prevention and treatment of osteoarticular diseases by inhibiting acetylcholinesterase” (priority 2021, published 2025).

Amino acid sequences for entries named in this document (tags omitted). Residues count along the entry.
UniProt Q9JKC1, 24-597 limits assumed: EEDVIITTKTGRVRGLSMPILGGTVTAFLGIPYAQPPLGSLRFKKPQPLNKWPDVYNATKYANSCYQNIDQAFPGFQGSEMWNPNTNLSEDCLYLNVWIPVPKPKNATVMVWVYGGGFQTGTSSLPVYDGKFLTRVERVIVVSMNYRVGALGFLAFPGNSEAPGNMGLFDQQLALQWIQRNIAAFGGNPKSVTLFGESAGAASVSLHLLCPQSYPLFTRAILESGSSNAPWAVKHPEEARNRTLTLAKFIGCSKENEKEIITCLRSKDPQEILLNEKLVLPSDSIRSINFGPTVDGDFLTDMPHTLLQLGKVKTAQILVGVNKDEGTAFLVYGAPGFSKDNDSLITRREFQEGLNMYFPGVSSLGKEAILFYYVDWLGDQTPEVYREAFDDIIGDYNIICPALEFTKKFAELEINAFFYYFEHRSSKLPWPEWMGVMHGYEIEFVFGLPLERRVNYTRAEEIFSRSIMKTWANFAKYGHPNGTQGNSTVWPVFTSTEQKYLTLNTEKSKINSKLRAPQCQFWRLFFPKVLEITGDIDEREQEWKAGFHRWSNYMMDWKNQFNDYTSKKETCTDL
UniProt P37136, 32-614 limits assumed: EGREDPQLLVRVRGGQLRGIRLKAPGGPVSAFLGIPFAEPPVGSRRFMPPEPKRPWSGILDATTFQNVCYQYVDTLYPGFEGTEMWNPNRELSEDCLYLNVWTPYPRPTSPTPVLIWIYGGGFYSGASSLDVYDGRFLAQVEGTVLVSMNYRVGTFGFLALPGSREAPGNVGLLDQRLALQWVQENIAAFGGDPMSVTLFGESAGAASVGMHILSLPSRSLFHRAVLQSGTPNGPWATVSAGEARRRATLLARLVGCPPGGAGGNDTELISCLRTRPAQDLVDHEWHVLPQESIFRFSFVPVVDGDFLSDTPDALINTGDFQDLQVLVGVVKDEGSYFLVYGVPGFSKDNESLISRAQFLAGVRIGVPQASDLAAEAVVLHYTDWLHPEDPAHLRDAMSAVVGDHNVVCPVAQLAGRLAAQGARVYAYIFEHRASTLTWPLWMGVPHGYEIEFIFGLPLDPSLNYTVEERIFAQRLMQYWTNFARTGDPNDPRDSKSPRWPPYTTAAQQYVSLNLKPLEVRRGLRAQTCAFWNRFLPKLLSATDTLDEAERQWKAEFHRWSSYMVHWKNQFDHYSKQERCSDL

Tests used:
RAW 264.7 cells = test: RANKL-induced osteoclastogenesis of RAW 264.7 cells; format: cell-based, mouse; settings: for Osteoclastogenesis: RAW 264.7, RANKL 15 ng/ml 3 days, 0.1, 0.5 and 1 μM (FIG. 9); for Osteoclastogenic differentiation of RAW 264.7 cells: all at 1 μM (FIG. 10 A-H); for mRNA expression of MMP9, RANK, TRAP (osteoclast markers) compared with alendronate: all at 1 μM, qPCR (FIG. 10 I)
[1] = tested on: murine mesenchymal stem cells (mMSCs); test: Mineralization of murine mesenchymal stem cells, Alizarin Red S staining; settings: mMSCs, 0.1, 0.5, 1 μM (FIG. 12)
BuChE = BuChE (Rattus norvegicus, UniProt Q9JKC1); test: In vitro BuChE inhibition by tacrine and bis(n)-tacrine analogs (Table 1); settings: read-out: BuChE IC50
[2] = Toxicity and therapeutic index compared with tacrine
AChE = AChE (Rattus norvegicus, UniProt P37136); test: AChE inhibition by huperzine A-tacrine hybrids and HA fragment monomers
ATDC5 cells = test: IL-1β-stimulated ATDC5 cells, marker expression by qPCR; format: cell-based, mouse
Balb/C female mice = test: OVX (ovariectomy)-induced bone loss in Balb/C mice, micro-CT; settings: abdominal injection 0.2 or 2 mg/kg body weight/day for 4 weeks, starting 4 weeks after OVX (FIG. 8)
[3] = tested on: spontaneously hypertensive rats (SHR); test: DAB staining for acetylcholinesterase in joint sections of SHR rats (osteoarthritis model); settings: osteoarthritic SHR rats, abdominal injection 2 mg/kg body weight/day for one month

Structure (SMILES) | Osteoclastogenesis (RAW 264.7 cells) | Osteoclastogenic differentiation of RAW 264.7 cells (RAW 264.7 cells) | Bone mineralization (Alizarin Red S staining) [1] | other results
c1ccc2c(NCCCNc3c4c(nc5ccccc35)CCCC4)c3c(nc2c1)CCCC3 | suppressed osteoclastogenesis in a dose-dependent manner | particularly pronounced | promotive effects of donepezil and bis(3)-tacrine (B3C) were observed at the concentration of 1 μM | mRNA expression of MMP9, RANK, TRAP (osteoclast markers) compared with alendronate (RAW 264.7 cells): comparable and superior to alendronate
c1ccc2c(NCCCCCCCCCNc3c4c(nc5ccccc35)CCCC4)c3c(nc2c1)CCCC3 | – | – | – | IC50 (BuChE): 190 nM
COc1ccc2c3c1OC1CC(O)C=CC31CCN(C)C2 (centres unmarked) | donepezil and four dimers, rather galantamine, suppressed osteoclastogenesis | did not | – | –
c1ccc2c(NCCCCCCCNc3c4c(nc5ccccc35)CCCC4)c3c(nc2c1)CCCC3 | suppressed osteoclastogenesis in a dose-dependent manner | – | – | Toxicity compared with tacrine [2]: less toxic than tacrine
CC1=CC2Cc3nc4cccc(F)c4c(N)c3C(C1)C2 (centres unmarked) | – | – | – | Potency for AChE relative to HA (AChE): 21 fold
O=c1ccc2c([nH]1)CCC[C@@H]2NCCCCCCCCCCCCN[C@H]1CCCc2[nH]c(=O)ccc21 [E12E, (S,S)-(−)-N, N′-di-5′-(5′, 6′7′,8′-tetrahydroquinolin-2-onyl)-1,12-diaminododecane, bis-hydrochloride] | – | – | promoted bone mineralization, with their promotion strength positively correlated with drug concentration | –
O=c1ccc2c([nH]1)CCCC2NCCCCCCCCCCNc1c2c(nc3ccccc13)CCCC2 (centres unmarked) | suppressed osteoclastogenesis in a dose-dependent manner | – | promoted bone mineralization, with their promotion strength positively correlated with drug concentration | Pro-inflammatory cytokine expression after IL-1β stimulation (ATDC5 cells; ATDC5 cells, 10 ng/ml IL-1β, 24 h, qPCR (FIG. 3A)): down-regulating key pro-inflammatory cytokines including TNF-alpha
COc1cc2c(cc1OC)C(=O)C(CC1CCN(Cc3ccccc3)CC1)C2 (centres unmarked) | suppressed osteoclastogenesis in a dose-dependent manner | significantly suppressed | promotive effects of donepezil and bis(3)-tacrine (B3C) were observed at the concentration of 1 μM | p16 expression (senescence marker) after IL-1β stimulation (ATDC5 cells; ATDC5 cells (FIG. 3C)): decreased; Anabolic (Agg, Sox9, Col2a1) and catabolic (MMP13) factors after IL-1β stimulation (ATDC5 cells; ATDC5 cells, 10 ng/ml IL-1β, 24 h, qPCR (FIG. 3B)): increased the anabolic and decreased the catabolic factors; Cell-cell fusion of osteoclast precursors (RAW 264.7 cells; RAW 264.7, 15 ng/ml RANKL, donepezil 1 μM pre- or post-treatment for 2 days (FIG. 7)): inhibited cell-cell fusion of osteoclast precursors; mRNA expression of MMP9, RANK, TRAP (osteoclast markers) compared with alendronate (RAW 264.7 cells): comparable and superior to alendronate; OVX-induced bone loss (micro-CT of tibia primary spongiosa and lumbar vertebral body) (Balb/C female mice): dose-dependent osteoprotection, rescuing OVX (ovariectomy)-induced bone loss; Acetylcholinesterase expression in joint sections (DAB staining) [3]: a decrease in acetylcholinesterase expression could be observed

Counter-ions that a name gives are not always drawn.
